From PubChem BioAssay AID504720 (Sanford-Burnham Center for Chemical Genomics, 2011)
The list shows a part of the results, in another mix than the full data. Calls of active or inactive are those of the source. No stated cut-off is given here; in the data, active means activation above about 50%; inactive means the rest.

Amino acid sequences for entries named in this document (tags omitted).
UniProt P0AE70, whole entry, looked up: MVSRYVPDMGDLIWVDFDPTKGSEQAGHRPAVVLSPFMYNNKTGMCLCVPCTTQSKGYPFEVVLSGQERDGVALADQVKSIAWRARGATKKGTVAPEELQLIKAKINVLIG

Each molecule was assayed against Endoribonuclease toxin MazF (Escherichia coli (strain K12)) (UniProt P0AE70) (assay: activators of E. coli MazEF toxin-antitoxin RNase, primary screen, biochemical, fluorescence, uHTS (AID 504720)). Details: FAM/BHQ RNA-DNA oligo cleavage fluorescence, 5 h, at 20 µM, stronger effect = higher value.
With `CCC(=O)N(c1ccccc1)C1(COC)CCN(CCn2nnn(CC)c2=O)CC1` the activation was inactive: 0.2%. With `CCC(=O)N(c1ccccc1)C1(COC)CCN(CCc2cccs2)CC1` the activation was inactive: 3.4%.
